Values of other authors as cited in US20200000816A1, “COMPOUND HAVING SOMATOSTATIN RECEPTOR AGONISTIC ACTIVITY AND PHARMACEUTICAL USE THEREOF” (ONO PHARMACEUTICAL CO., LTD., priority 2017, published 2020).

Sequences of proteins named here, by UniProt entry; tags and fusion partners are left off.
UniProt P35346, whole entry, species assumed: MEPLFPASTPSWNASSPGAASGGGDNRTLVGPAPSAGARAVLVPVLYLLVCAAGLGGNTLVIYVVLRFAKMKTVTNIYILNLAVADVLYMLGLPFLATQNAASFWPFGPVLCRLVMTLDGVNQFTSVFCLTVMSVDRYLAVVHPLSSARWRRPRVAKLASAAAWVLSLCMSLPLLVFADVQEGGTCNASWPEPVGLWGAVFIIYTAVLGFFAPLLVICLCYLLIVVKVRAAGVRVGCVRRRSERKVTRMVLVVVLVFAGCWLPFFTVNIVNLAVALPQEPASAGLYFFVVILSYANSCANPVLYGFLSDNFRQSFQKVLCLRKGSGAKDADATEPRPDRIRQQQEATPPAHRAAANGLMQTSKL
UniProt P30874, whole entry, species assumed: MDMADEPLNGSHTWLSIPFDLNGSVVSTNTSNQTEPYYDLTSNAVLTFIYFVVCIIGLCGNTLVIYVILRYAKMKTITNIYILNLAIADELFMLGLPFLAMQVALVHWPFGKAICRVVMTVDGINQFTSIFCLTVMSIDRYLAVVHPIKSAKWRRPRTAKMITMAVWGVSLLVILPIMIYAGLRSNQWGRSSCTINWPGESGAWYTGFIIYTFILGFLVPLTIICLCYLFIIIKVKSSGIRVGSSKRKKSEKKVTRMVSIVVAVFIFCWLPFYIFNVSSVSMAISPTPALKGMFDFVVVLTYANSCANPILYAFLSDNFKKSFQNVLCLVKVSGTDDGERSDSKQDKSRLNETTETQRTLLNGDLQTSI
UniProt P30872, whole entry, species assumed: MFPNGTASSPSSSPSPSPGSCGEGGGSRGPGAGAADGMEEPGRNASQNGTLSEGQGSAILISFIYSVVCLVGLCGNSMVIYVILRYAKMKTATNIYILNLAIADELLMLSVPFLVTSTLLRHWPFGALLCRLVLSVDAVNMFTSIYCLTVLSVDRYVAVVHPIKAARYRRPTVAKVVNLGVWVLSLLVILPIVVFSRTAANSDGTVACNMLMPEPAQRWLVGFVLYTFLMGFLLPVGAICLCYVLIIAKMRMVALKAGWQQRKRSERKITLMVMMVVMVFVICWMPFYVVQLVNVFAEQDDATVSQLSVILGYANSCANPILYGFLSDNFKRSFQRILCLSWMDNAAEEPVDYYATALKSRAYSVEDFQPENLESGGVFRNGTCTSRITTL
UniProt P31391, whole entry, species assumed: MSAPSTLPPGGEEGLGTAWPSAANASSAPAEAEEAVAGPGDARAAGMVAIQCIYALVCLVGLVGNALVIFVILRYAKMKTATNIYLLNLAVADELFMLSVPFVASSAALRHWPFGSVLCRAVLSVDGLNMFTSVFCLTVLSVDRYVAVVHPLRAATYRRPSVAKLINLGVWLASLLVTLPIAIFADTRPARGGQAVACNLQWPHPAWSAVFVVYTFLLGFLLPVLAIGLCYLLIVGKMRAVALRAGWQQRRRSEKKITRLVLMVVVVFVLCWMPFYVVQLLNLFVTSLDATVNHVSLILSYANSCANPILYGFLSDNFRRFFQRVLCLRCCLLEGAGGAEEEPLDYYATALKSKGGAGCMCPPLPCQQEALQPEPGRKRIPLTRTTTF
UniProt P32745, whole entry, species assumed: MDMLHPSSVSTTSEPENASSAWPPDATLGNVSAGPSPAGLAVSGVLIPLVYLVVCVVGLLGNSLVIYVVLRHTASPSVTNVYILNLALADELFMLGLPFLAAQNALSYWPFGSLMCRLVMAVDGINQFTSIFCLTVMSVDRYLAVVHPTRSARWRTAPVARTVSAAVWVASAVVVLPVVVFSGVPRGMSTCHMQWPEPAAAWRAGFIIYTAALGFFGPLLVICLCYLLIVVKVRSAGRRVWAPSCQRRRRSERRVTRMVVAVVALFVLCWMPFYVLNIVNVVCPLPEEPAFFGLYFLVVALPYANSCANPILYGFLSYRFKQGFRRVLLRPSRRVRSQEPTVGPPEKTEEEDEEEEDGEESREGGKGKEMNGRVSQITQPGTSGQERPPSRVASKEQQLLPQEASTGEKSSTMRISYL

Tests used:
Conditions in all cases: reported in background art; cited from earlier work
[1] = target: somatostatin receptor subtype 5 (SSTR5) (Homo sapiens, UniProt P35346)
[2] = target: somatostatin receptor subtype 2 (SSTR2) (Homo sapiens, UniProt P30874)
[3] = target: somatostatin receptor subtype 1 (SSTR1) (Homo sapiens, UniProt P30872)
[4] = target: somatostatin receptor subtype 4 (SSTR4) (Homo sapiens, UniProt P31391)
[5] = target: somatostatin receptor subtype 3 (SSTR3) (Homo sapiens, UniProt P32745)

In the case of octreotide acetate, the “binding affinity to SSTR5” value [1] is given as “moderate affinity”, the “binding affinity to SSTR2” value [2] is given as “high affinity” and the “binding to SSTR1” value [3] is given as “do not bind”. For the same substance, the “binding to SSTR4” value [4] was “do not bind” and the “binding affinity to SSTR3” value [5] was “moderate affinity”.
